Target: recombinant human caseinolytic peptidase hClpP (Homo sapiens, UniProt Q16740)
Test: hClpP peptide hydrolysis assay (Ac-WLA-AMC)
Conditions: 1 uM, Protocol 2

SMILES: O=C1C2=C(CCN(Cc3ccccc3)C2)N2CCN=C2N1Cc1ccc(F)cc1F [Ex. 60, 11-benzyl-7-[(2,4-difluorophenyl)methyl]-2,5,7,11-tetraazatricyclo[7.4.0.0^2,6]trideca-1(9),5-dien-8-one, reference compound]
- Time course of hClpP activity: time-dependent increase in coumarin fluorescence release

— US12692267B2 (Madera Therapeutics, LLC, priority 2019, dated 2026)
